Target: Human CatS (Homo sapiens, UniProt P25774)
Experiment: CatS inhibition of hydrolysis of fluorescent substrate Z-Val-Val-Arg-AFC
Conditions: read-out: CatS Ki^app; apparent Ki, Morrison equation fit of initial rates; 10 μM Z-Val-Val-Arg-AFC, pH 5.0, 1.5 nM CatS

The chains behind the UniProt entries cited, without tags or fusion partners. Residues count along the entry.
UniProt P25774, 115-331 limits assumed: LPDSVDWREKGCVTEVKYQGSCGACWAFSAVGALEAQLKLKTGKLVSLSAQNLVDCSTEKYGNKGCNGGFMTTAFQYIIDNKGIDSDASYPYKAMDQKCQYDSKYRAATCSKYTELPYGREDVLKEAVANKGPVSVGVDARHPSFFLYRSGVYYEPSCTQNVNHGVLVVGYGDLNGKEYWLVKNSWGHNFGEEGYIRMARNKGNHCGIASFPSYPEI

## COc1cccc(CNCCNC(=O)c2cccc(-c3cc(-c4nn(CCCN5CCCC5)c5c4CN(S(C)(=O)=O)CC5)ccc3Cl)c2)c1
  Ki: 1390 nM

— patent publication US20080207683A1, “BIARYL-S[…]-PYRAZOLO-PYRIDINE MODULATORS OF CATHEPSIN S” (priority 2007, published 2008)
